According to patent US4465676A, “16α Halogen substituted 3,17β-dihydroxy steroidal estrogens” (priority 1980, dated 1984):
Where two headings read alike, the source gives them in different places.

By UniProt entry, the sequences of proteins in these tests, tags left out.
UniProt P49884, whole entry: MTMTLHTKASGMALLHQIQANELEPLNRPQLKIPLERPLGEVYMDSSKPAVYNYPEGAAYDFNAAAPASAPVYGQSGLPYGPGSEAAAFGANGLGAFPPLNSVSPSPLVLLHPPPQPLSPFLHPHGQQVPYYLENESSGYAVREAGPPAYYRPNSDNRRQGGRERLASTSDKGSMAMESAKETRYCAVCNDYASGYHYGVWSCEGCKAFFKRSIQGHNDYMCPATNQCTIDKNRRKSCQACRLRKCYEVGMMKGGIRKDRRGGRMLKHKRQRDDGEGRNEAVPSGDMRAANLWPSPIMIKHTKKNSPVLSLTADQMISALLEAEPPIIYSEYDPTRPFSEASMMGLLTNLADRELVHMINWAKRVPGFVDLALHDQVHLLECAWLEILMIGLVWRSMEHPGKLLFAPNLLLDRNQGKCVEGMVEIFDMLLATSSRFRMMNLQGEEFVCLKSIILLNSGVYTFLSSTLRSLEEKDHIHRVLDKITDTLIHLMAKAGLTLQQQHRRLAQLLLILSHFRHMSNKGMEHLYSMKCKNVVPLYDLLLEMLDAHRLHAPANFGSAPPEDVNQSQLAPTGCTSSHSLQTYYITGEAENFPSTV

Biological target: estrogen receptor (calf uterine cytosol) (Bos taurus, UniProt P49884)
Experiment: Competition for the estrogen receptor in calf uterine cytosol
Settings: for activity at 0.0005 µM: competitor 0.5 nM

SMILES: C[C@]12CC[C@H]3[C@@H](CCC4=CC(=O)CC[C@@]43C)[C@@H]1CC[C@@H]2O [Testosterone]
- activity at 0.0005 µM (read-out: B/B0 × 10^2, tracer ^3 H-E2 (0.74 nM)): 97%
- activity at 0.005 µM (read-out: B/B0 × 10^2, tracer ^3 H-E2 (0.74 nM), competitor 5.0 nM): 95%
- activity at 0.0005 µM (read-out: B/B0 × 10^2, tracer ^125 I-E2 (0.22 nM)): 93%
- activity at 0.005 µM (read-out: B/B0 × 10^2, tracer ^125 I-E2 (0.22 nM), competitor 5 nM): 93%
